Test results taken from US4016176A, “Esters of 4-hydroxy-2,9-dioxatricyclo[4.3.1.0^3,7 ] decanes and processes for their production” (Kali-Chemie Pharma GmbH, priority 1973, dated 1977).

System: white mice
Test: muscle relaxant effect in white mice

COC1OC2OC3(C)C(OC(=O)Nc4ccccc4)CC(C2C)C13 (stereo not drawn) [Example 17, 4β-(N-Phenylcarbamyloxy)-8-methoxy-3,10-dimethyl-2,9-dioxatricyclo[4.3.1.0^3,7]decane]
muscle relaxant effect (in words): effective as a muscle relaxant (similar to the action of phenobarbital)
